Only a part is listed here, and it is no random draw. Activity calls are given as the source filed them.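 Rule for the calls: active = mean inhibition of at least 50% after viability correction, with every replicate also passing that limit; inconclusive = mean reaches 50% but only one of two replicates passes; inactive = the rest.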
Experiment: blockers of EWS/Fli transcriptional output – A673 cells, NR0B1 luciferase, luminescence, MLPCN library, primary screen (AID 651661);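 note: firefly luciferase signal divided by Alamar Blue viability fluorescence both relative to DMSO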
Conditions: A673 NR0B1-luciferase reporter, viability-normalised; at 12.6 µM; stronger effect = higher value
With `O=C(O)C(=O)c1ccc(N(CCCl)CCCl)cc1` the inhibition was inactive: -2.17%.
For `CCOC(=O)Nc1cccc([As](=O)(O)O)c1`, the inhibition was inactive: -11%.
For `O=[N+]([O-])c1ccc(Nc2ccc(Oc3ccc([N+](=O)[O-])cc3[N+](=O)[O-])cc2)c([N+](=O)[O-])c1`, the inhibition was inactive: -12.1%.
In the case of `O=P(Nc1ccccn1)(c1cccc2ccccc12)c1cccc2ccccc12`, the inhibition is reported as inactive: 2.15%.
For `Cc1cc(SC(NC=O)C(Cl)(Cl)Cl)ncn1` (centres undefined), the inhibition was inactive: 7.22%.
For `CC1CCNP(=O)(N(CCCl)CCCl)O1` (centres undefined), the inhibition was inactive: -4.69%.
For `CCOC(=O)Nc1ccc([As](=O)(O)O)c(O)c1`, the inhibition was inactive: 0.65%.
With `O=C(O)C(O)c1ccc(N(CCCl)CCCl)cc1` (centres undefined) the inhibition was inactive: -0.0725%.
In the case of `CCCCOc1ccc(C(=O)NCC2(N3CCCCC3)CCCCC2)cc1OC`, the inhibition is reported as inactive: -10.5%.
For `COP(=O)(OC)N1CC1c1ccccc1` (centres undefined), the inhibition was inactive: 3.82%.
With `CC(C)(C)C(=O)NC(Sc1ccncn1)C(Cl)(Cl)Cl` (centres undefined) the inhibition was inactive: -0.299%.
With `O=[N+]([O-])c1ncn(CCn2ncnc2[N+](=O)[O-])n1` the inhibition was inactive: -2.52%.
For `O=[N+]([O-])c1cccc(NC2=NCC(CBr)S2)c1` (centres undefined), the inhibition was inactive: 4.3%.
With `COC(=O)C1(C)COP(=O)(Nc2ccccc2)OC1` (centres undefined) the inhibition was inactive: -5.65%.
With `O=C(O)CNc1ccc([As](=O)(O)O)cc1` the inhibition was inactive: 6.97%.
In the case of `O=P1(N(CCCl)CCCl)OCCCS1` (centres undefined), the inhibition is reported as inactive: 1.84%.
With `O=C(Nc1cc([As](=O)(O)O)ccc1O)c1ccccc1` the inhibition was inactive: -3.21%.
For `Nc1ccc([As](=O)(O)c2ccc(N)cc2)cc1`, the inhibition was inactive: -8.88%.
In the case of `C[N+]1=C2C=CC=CC=C2SC12C([N+](=O)[O-])=CC([N+](=O)[O-])=C[C-]2[N+](=O)[O-]` (centres undefined), the inhibition is reported as inactive: 32%.
In the case of `CCN(/C(=N/P(=O)(N1CCOCC1)N1CCOCC1)N1CCOCC1)c1ccc(OC)cc1`, the inhibition is reported as inactive: 1.88%.
With `CC(C)=N/N=C(\N)N[N+](=O)[O-]` the inhibition was inactive: 4.87%.
With `CC(C)c1nc(Nc2ccccc2)n(P(=O)(N(C)C)N(C)C)n1` the inhibition was inactive: 4.1%.
In the case of `c1cc(-c2nn[nH]n2)ccc1-c1nn[nH]n1`, the inhibition is reported as inactive: -2.05%.
In the case of `COc1ccc(C2=NCC(CBr)S2)cc1` (centres undefined), the inhibition is reported as inactive: -8.54%.
For `Cc1ccc(NP(=O)(Oc2ccccc2)Oc2ccccc2)nc1`, the inhibition was inactive: -1.06%.
In the case of `O=[N+]([O-])c1cc([N+](=O)[O-])c(CCNc2ccccc2)c([N+](=O)[O-])c1`, the inhibition is reported as inactive: 26.6%.
In the case of `Nc1cc(N)c2nonc2c1[N+](=O)[O-]`, the inhibition is reported as inactive: 9.5%.
In the case of `O=C(NC(Sc1ccncn1)C(Cl)(Cl)Cl)c1ccccc1` (centres undefined), the inhibition is reported as inactive: 6.46%.
In the case of `NC(=O)c1cc([N+](=O)[O-])cc([N+](=O)[O-])c1N`, the inhibition is reported as inactive: 9.98%.
In the case of `CN(C(=O)Cc1ccc(Cl)c(Cl)c1)[C@H]1CCCC[C@H]1N1CCCC1`, the inhibition is reported as inactive: 9.17%.
In the case of `Cc1ccc(N/C(=N/P(=O)(N2CCOCC2)N2CCOCC2)N2CCOCC2)cc1`, the inhibition is reported as inactive: -1.95%.
In the case of `COc1ccccc1OP(=O)(Nc1ccc(C)cn1)Oc1ccccc1OC`, the inhibition is reported as inactive: 9.14%.
For `Cc1ccc(OP(=O)(Nc2nccs2)Oc2ccc(C)cc2)cc1`, the inhibition was inactive: 9.87%.
For `Clc1ccc(Cl)c(NC2=NCC(CBr)S2)c1` (centres undefined), the inhibition was inactive: -1.03%.
With `CN(C(=O)Cc1ccccc1)C1CC[C@@]2(CCCO2)C[C@@H]1N1CCCC1` (some centres undefined) the inhibition was inactive: 4.62%.
In the case of `Nc1cccc2ccc([As](=O)(O)O)cc12`, the inhibition is reported as inactive: -19.5%.
With `O=C(O)c1ccccc1[As](=O)(O)O` the inhibition was inactive: -1.04%.
For `CC(=O)Nc1ccc([As](=O)(O)O)cc1`, the inhibition was inactive: -1.46%.
With `CCCC1OP(N)(=O)OCC1CC` (centres undefined) the inhibition was inactive: -6.44%.
With `CN(C)P(=O)(N(C)C)n1c(Nc2ccccc2)nnc1-c1ccccc1` the inhibition was inactive: -17.7%.
For `O=P(Nc1nc2ccc(Cl)cc2s1)(c1ccccc1)c1ccccc1`, the inhibition was inactive: 4.39%.
For `Cc1ccc(NP(=O)(Oc2ccccc2F)Oc2ccccc2F)nc1`, the inhibition was inactive: 5.93%.
For `CN(C(=O)Cc1ccc(Cl)c(Cl)c1)[C@H]1CCCC[C@@H]1N1CCCC1`, the inhibition was inactive: -2.69%.
With `CCn1c(=O)n(C2CCN(CC3CCCCCCC3)C[C@H]2CO)c2ccccc21` (some centres undefined) the inhibition was inactive: 6.12%.
For `CC(=O)NC(SC(=S)N(CC(C)C)CC(C)C)C(Cl)(Cl)Cl` (centres undefined), the inhibition was inactive: -20.3%.
For `Cc1ccc(OP(=O)(Nc2ccccn2)Oc2ccc(C)cc2)cc1`, the inhibition was inactive: 8.18%.
In the case of `O=C(OC1CN2CCC1CC2)c1ccccc1` (centres undefined), the inhibition is reported as inactive: -1.37%.
For `Cc1ccccc1OP(=O)(Nc1ccccn1)Oc1ccccc1C`, the inhibition was inactive: 8.55%.
For `CC(NC(=O)COC(=O)C(O)(c1ccccc1)c1ccccc1)c1ccccc1` (centres undefined), the inhibition was inactive: 8.7%.
In the case of `CN(C)C(=O)Oc1noc2ccccc12`, the inhibition is reported as inactive: -3.73%.
For `O=c1c2cc([N+](=O)[O-])ccc2[nH]c2c([N+](=O)[O-])cc([N+](=O)[O-])cc12`, the inhibition was inactive: 31.6%.
With `CCNC(=S)/N=C(\N)N[N+](=O)[O-]` the inhibition was inactive: -6.55%.
In the case of `O=C(NC1CCS(=O)(=O)C1)NP(=S)(Oc1ccccc1)Oc1ccccc1` (centres undefined), the inhibition is reported as inactive: 11.4%.
With `c1ccc(-c2nn[nH]n2)c(-c2nn[nH]n2)c1` the inhibition was inactive: 13.1%.
In the case of `Cc1ccc(NP(=O)(Oc2cccc(C)c2)Oc2cccc(C)c2)nc1`, the inhibition is reported as inactive: 3.09%.
In the case of `O=P1(N(CCCl)CCCl)OCCC2CCCCN21` (centres undefined), the inhibition is reported as inactive: 1.2%.
For `N#C/C(=C\c1ccc(N(CCBr)CCBr)cc1)C(N)=O`, the inhibition was inactive: 28.3%.
With `CC(=O)c1ccc(N2CC2c2ccncc2)cc1` (centres undefined) the inhibition was inactive: 7.31%.
For `COC(=O)C1(C)COP(=O)(NCc2ccccc2)OC1` (centres undefined), the inhibition was inactive: 5.72%.
For `Cc1ccccc1CN(C)C(=O)COC(=O)C(O)(c1ccccc1)c1ccccc1`, the inhibition was inactive: -1.05%.
For `C[C@@H]1C=CCP(=O)(Oc2ccccc2)O1` (some centres undefined), the inhibition was inactive: -0.833%.
With `C[C@H]1OP(=O)(Oc2ccccc2)C[C@@H]2O[C@@H]21` (some centres undefined) the inhibition was inactive: -1.65%.
In the case of `CC(=O)Nc1ccc([As](=O)(O)O)c(O)c1`, the inhibition is reported as inactive: 5.17%.
With `CC(=O)Nc1ccc(Oc2c([N+](=O)[O-])cc([N+](=O)[O-])cc2[N+](=O)[O-])cc1` the inhibition was inactive: -11.8%.
In the case of `CCOc1ccc(C2=NCC(CBr)S2)cc1` (centres undefined), the inhibition is reported as inactive: -1.23%.
With `CCc1cc(O)c([N+](=O)[O-])c(C)c1[N+](=O)[O-]` the inhibition was inactive: 0.25%.
For `CC(C)(C)C(=O)NC(Sc1ccccc1)C(Cl)(Cl)Cl` (centres undefined), the inhibition was inactive: -14.4%.
For `CC(=O)NC(SC(=S)N(C)C)C(Cl)(Cl)Cl` (centres undefined), the inhibition was inactive: 15.7%.
In the case of `O=[N+]([O-])c1ncn(CCn2cnc([N+](=O)[O-])n2)n1`, the inhibition is reported as inactive: 2.55%.
With `O=[As](O)(c1ccccc1)c1ccc(O)cc1` the inhibition was inactive: -3.85%.
In the case of `C/C(N)=N\P(=O)(OCc1ccccc1)OCc1ccccc1`, the inhibition is reported as inactive: 9.29%.
For `Nc1ccc([As](=O)(O)c2ccc([N+](=O)[O-])cc2)cc1`, the inhibition was inactive: -4.46%.
For `C(Cc1nn[nH]n1)Cc1nn[nH]n1`, the inhibition was inactive: 8.73%.
With `Nc1ccc(CCCCOc2ccccc2)cc1` the inhibition was inactive: -7.89%.
In the case of `COc1ccc(N)c([N+](=O)[O-])c1[N+](=O)[O-]`, the inhibition is reported as inactive: -1.65%.
For `O=P(Nc1ccccn1)(c1ccc(Br)cc1)c1ccc(Br)cc1`, the inhibition was inactive: 0.702%.
For `CN(C)C1(CNC(=O)c2ccc(Cl)c(S(N)(=O)=O)c2)CCCCC1`, the inhibition was inactive: 0.674%.
For `O=P(Nc1nc2ccccc2s1)(c1ccccc1)c1ccccc1`, the inhibition was inactive: 1.77%.
In the case of `C[C@H]1OP(=O)(Oc2ccccc2)[C@H](O)[C@H](O)[C@H]1N=[N+]=[N-]` (some centres undefined), the inhibition is reported as inactive: 4.03%.

Source: PubChem BioAssay AID651661 (Broad Institute, 2012)
